Assays:
[1] = Sirius T3 automated potentiometric titrations with n-octanol, log P / log D; conditions: for Log D7.4: pH 7.4
[2] = open-tubular capillary electrochromatography (CEC), permeability k′ parameter; type: in vitro ADME; conditions: pH 7.4 HEPES buffer 40 mM, migration times in coated and uncoated capillary, mean ± SD of three independent experiments
[3] = experimental in vivo measurements from rats, data retrieved from literature; cited from earlier work

Substance | Log P ± SD [1] | Log D7.4 [1] | k′ ± SD (CEC) [2] | Log BB [3]
nicotine | 1.31 ± 0.01 | 0.54 | 0.00897 ± 0.00167 | 0.40
clonidine | 1.53 ± 0.01 | 0.74 | – | –
pindolol | 1.91 ± 0.01 | −0.28 | – | –

From article PMC12785511, “Integrative Profiling for BBB Permeability Using Capillary Electrochromatography, Experimental Physicochemical Parameters, and Ensemble Machine Learning” (International Journal of Molecular Sciences, 2025)
